A word on the Papp: it is the rate of passage across a membrane or cell layer, normalised by area and donor concentration. Higher therefore signals ready permeation.

The series can be described thus: passive permeability, PAMPA, ADME assay (AID 1508612). The following applies: pH 7.4, 30.0 min, 50.0 µM. For orientation: The PAMPA barrier holds no transporters, so it reflects passive diffusion.

Consider `CC(=O)NC(SC(=S)N(C)C)C(Cl)(Cl)Cl` (stereo unspecified), for which the Papp was determined as 63.5 ×10⁻⁶ cm/s.

These data come from PubChem BioAssay AID1508612.
